These are literature values, as cited in patent US5352772A, “75 Kilodalton interleukin-2 receptor proteins and their uses” (The Trustees of Dartmouth College, priority 1986, dated 1994).

The subject of this data set is IL-2 receptors. The conditions noted are these: cited from earlier work.

With “IL-2: 15,000 dalton glycoprotein lymphokine; homogeneous recombinant IL-2 provided by Takeda Chemical Industries”, the “increase in cell surface density of Tac antigen+ low affinity IL-2 binding sites” value (IL-2 mediated, earlier experiments) is reported as 10 fold. Besides, the “decline of high affinity IL-2 receptors” value (in the presence of IL-2) is reported as at most 50%.
